From ChEMBL document CHEMBL2069242, “Structure and activity relationship in the (S)-N-chroman-3-ylcarboxamide series of voltage-gated sodium channel blockers” (Bioorg Med Chem Lett, 2012)

By UniProt entry, the sequences of proteins in these tests, tags left out. Where a name states a change or a piece, a line headed by the entry shows the natural chain unless it says otherwise.
UniProt Q12809: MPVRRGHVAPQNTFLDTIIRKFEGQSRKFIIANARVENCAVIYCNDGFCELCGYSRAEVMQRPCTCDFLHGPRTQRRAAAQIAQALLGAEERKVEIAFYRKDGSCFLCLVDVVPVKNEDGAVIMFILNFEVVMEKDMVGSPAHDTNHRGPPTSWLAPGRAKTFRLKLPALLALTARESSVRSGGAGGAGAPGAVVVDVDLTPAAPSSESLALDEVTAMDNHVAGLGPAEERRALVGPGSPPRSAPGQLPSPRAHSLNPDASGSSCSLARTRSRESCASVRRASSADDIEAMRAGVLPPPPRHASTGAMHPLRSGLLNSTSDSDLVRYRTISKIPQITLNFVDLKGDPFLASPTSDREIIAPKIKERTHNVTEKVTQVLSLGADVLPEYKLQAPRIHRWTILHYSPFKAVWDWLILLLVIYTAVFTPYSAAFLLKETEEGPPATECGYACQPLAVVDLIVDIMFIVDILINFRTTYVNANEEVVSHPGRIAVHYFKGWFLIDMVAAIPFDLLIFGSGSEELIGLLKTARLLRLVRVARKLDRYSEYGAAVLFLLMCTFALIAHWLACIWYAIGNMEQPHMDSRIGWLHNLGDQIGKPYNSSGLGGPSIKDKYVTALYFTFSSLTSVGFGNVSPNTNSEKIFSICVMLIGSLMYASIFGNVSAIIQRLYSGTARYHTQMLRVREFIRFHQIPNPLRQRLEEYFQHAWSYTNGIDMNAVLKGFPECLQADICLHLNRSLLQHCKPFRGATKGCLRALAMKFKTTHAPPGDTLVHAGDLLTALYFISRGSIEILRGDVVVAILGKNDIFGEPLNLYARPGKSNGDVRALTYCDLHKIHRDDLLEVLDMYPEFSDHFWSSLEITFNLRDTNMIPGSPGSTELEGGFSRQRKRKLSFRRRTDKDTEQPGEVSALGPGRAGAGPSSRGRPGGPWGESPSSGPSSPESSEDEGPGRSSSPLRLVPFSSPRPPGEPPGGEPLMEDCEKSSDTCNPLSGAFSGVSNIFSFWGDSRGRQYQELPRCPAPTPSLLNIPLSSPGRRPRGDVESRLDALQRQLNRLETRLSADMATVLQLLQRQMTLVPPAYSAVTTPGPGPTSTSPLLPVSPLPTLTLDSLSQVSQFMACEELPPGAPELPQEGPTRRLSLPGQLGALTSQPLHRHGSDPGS

Target: Voltage-gated inwardly rectifying potassium channel KCNH2 (Homo sapiens, UniProt Q12809)
Experiment: Inhibition of human ERG expressed in CHO cells by IonWorks HT assay
Type: cell-based

## COc1ncc(-c2cccc3c2C[C@H](NC(=O)c2ccc(OCC(F)(F)F)nc2)CO3)cn1
  IC50: 7.94 µM
